Target: T1, bovine serum albumin (BSA) (Bos taurus, UniProt P02769)
T1 construct: bovine serum albumin (BSA, fraction V, ≥98%) were obtained from Merck; purchased Merck (Darmstadt, Germany)
Assay: Fluorescence quenching of BSA by flavonoids (Stern–Volmer, binding equation, van't Hoff)
Details: 25 °C
Method: Fluorescence quenching spectroscopy was employed to investigate the interaction between bovine serum albumin (BSA) and selected flavonoids, including morin. All measurements were performed using a spectrofluorometer under controlled temperature conditions (25 °C).
To quantify the quenching effect upon encapsulation, the Stern–Volmer equation was applied (Equation (1)):F0/F = 1 + Ksv [Q](1) where F0 and F are the fluorescence intensities of BSA in the absence and presence of quencher (flavonoid), respectively, Ksv is the Stern–Volmer quenching constant, and [Q] is flavonoid concentration.
The binding constant (Ka) and the number of binding sites (n) were calculated using the logarithmic form of the binding equation (Equation (2)):log[(F0 − F)/F] = log Ka + n log[Q](2)
Thermodynamic parameters—Gibbs free energy change (ΔG°) (Equation (3)), enthalpy change (ΔH°), and entropy change (ΔS°)—were determined from the temperature dependence of the binding constant using the van’t Hoff equation (Equation (4)):ΔG° = ΔH° − TΔS°(3) ln Ka = −ΔH°/RT + ΔS°/R(4)

Protein sequences, listed by entry. Tags and fused reporters are not part of them. Residues count along the entry.
UniProt P02769, 25-607: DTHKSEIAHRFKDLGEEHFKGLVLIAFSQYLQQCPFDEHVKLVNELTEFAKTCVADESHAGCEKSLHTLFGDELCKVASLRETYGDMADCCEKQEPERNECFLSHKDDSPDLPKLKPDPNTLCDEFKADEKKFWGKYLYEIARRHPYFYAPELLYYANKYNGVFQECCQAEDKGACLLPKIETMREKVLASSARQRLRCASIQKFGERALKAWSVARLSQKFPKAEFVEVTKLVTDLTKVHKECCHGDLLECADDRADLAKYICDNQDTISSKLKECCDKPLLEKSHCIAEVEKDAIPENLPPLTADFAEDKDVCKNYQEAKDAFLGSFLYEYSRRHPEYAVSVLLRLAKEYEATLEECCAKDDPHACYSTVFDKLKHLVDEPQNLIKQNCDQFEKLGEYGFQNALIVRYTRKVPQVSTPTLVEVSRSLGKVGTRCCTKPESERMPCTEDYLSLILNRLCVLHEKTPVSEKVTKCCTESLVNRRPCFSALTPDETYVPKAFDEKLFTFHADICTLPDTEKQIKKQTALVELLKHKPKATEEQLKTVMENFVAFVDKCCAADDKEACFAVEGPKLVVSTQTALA

binding constant (Ka): 173000 L/mol
Compound: O=c1c(O)c(-c2ccc(O)c(O)c2)oc2cc(O)cc(O)c12 [quercetin]

Reference: article PMC12291850, “Morin Flavonoid Interaction with Albumin and Its Nanoparticle Conjugation: An Efficient Antioxidant Vehicle for Nutraceuticals” (Antioxidants, 2025)
